In ChEMBL document CHEMBL1938351, “The discovery of potent antagonists of NPBWR1 (GPR7)” (Bioorg Med Chem Lett, 2012):

Tests used:
[1] = target: T1, Neuropeptides B/W receptor type 1 (Mus musculus, UniProt P49681); test: Displacement of [125]-hNPW23 from mouse NPBWR1 expressed in CHO-K1 cells membrane by scintillation proximity assay; format: cell membranes
T1 sequence (P49681 whole entry): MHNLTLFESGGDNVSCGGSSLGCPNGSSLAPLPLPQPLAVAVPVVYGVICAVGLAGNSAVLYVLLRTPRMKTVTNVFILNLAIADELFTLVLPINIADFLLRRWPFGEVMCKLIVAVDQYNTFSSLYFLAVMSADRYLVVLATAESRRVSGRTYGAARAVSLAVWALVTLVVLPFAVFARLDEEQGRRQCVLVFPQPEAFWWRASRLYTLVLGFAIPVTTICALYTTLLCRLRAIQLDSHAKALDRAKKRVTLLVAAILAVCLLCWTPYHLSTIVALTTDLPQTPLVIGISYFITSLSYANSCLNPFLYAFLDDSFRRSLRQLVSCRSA

[2] = target: T1, Neuropeptides B/W receptor type 1; test: Antagonist activity at mouse NPBWR1 expressed in CHO-K1 cells assessed as inhibition of hNPW23 and forskolin-stimulated cAMP production after 1 hr by TR-FRET assay; format: functional, cell-based

Row | IC50 [1] | IC50 [2] | Compound
1 | 1.9 nM | 9.2 nM | COc1ccc(C(C)(C)N[C@@H]2CC[C@H](C(=O)N3CCN(c4nc5ccccc5o4)CC3)[C@@H](c3ccsc3)C2)cc1
2 | 0.69 nM | 5.9 nM | COc1ccc(C2(N[C@@H]3CC[C@H](C(=O)N4CCN(c5nc6ccccc6o5)CC4)[C@@H](c4ccsc4)C3)CCC2)cc1
3 | 2.4 nM | 4.6 nM | COc1ccc(C(C)(C)N[C@@H]2CC[C@H](C(=O)N3CCN(c4nc5ccccc5[nH]4)CC3)[C@@H](c3ccsc3)C2)cc1
4 | 2.2 nM | 14 nM | COc1ccc(C2(N[C@@H]3CC[C@H](C(=O)N4CCN(c5nnc(C(F)(F)F)s5)CC4)[C@@H](c4ccsc4)C3)CCC2)cc1
5 | 2.6 nM | 12 nM | COc1ccc(C2(N[C@@H]3CC[C@H](C(=O)N4CCN(c5nnc(Br)s5)CC4)[C@@H](c4ccsc4)C3)CCC2)cc1
6 | 0.43 nM | 3.9 nM | COc1ccc(C2(N[C@@H]3CC[C@H](C(=O)N4CCN(c5nc6cc(C)ccc6o5)CC4)[C@@H](c4ccsc4)C3)CCC2)cc1
